Details: solvent: mPAO150

For “dihexadecyldimethylammonium bis(2-ethylhexyl) phosphate [Example 8]”, the “solubility in mPAO150 (in words)” value was “soluble”.
